According to paper PMC4154712 (Journal of medicinal chemistry, 2014):

Legend:
[1] = test system: HCT15 cells, the drug resistant cell line of HCT116; assay: cells; details: Homo sapiens, HCT-15, 72 h, read-out: IC50 HCT15
[2] = test system: K562 human leukemia cells; assay: cells; details: K562, 20 h, read-out: IC50 ± SD K562

SMILES: COc1cc(C(=O)c2ccn(-c3ccccc3)c2)cc(OC)c1OC [Compound 4, (1-Phenyl-1H-pyrrol-3-yl)-(3,4,5-trimethoxyphenyl)methanone]
- IC50 [1]: 39 ± 4 nM

SMILES: COc1cc(C(=O)c2ccn(-c3cccc(NS(C)(=O)=O)c3)c2)cc(OC)c1OC [Compound 28, N-(3-(3-(3,4,5-Trimethoxybenzoyl)-1H-pyrrol-1-yl)phenyl)-methanesulfonamide]
- IC50 [2]: 19 ± 8 nM
